# Experimental data taken from US20150133456A1, “FLUOROERGOLINE DERIVATIVES AND USES THEREOF” (MAP PHARMACEUTICALS, INC., priority 2012, published 2015).
# By UniProt entry, the sequences of proteins in these tests, tags left out.
# UniProt P18089, whole entry: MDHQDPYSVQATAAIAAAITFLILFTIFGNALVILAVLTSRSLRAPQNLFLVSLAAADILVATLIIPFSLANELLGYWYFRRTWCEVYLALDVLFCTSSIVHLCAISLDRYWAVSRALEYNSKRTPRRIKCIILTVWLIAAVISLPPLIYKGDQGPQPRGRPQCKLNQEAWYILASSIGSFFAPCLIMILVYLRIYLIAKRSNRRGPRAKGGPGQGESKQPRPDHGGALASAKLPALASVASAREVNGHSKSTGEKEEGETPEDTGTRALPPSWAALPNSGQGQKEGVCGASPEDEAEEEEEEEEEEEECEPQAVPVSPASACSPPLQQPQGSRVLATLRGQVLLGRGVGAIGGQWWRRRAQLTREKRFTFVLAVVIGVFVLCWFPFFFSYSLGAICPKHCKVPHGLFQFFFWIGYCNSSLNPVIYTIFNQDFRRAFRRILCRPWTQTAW
# Target: human α2B receptor (Homo sapiens, UniProt P18089)
# Assay: biochemical
smiles,measurement,value
CN1C[C@H](C(=O)N[C@]2(C)O[C@@]3(O)[C@@H]4CCCN4C(=O)[C@H](Cc4ccccc4)N3C2=O)CC2c3cccc4[nH]c(C(F)(F)F)c(c34)CC21 (stereo partly shown) [2-CF3-dihydroergotamine],IC50,2.14 µM
